Laboratory results published in patent US7276644.

How the values were obtained:
[1] = biological target: F-actin prepared from acetone powder of rabbit muscle (rabbit) (UniProt P68135); assay: stopped-flow light scattering; acto-HMM with MgADP mixed with MgATP
[2] = biological target: F-actin prepared from acetone powder of rabbit muscle (rabbit) (UniProt P68135); assay: stopped-flow light scattering at 340 nm, 15 °C; acto-HMM with MgADP mixed with MgATP
[3] = biological target: F-actin prepared from acetone powder of rabbit muscle (rabbit) (UniProt P68135); assay: stopped-flow light scattering at 340 nm, 15 °C, 120 mM ionic strength; linear fit of acto-HMM dissociation rate against [MgATP], no ADP
[4] = biological target: F-actin prepared from acetone powder of rabbit muscle (UniProt P68135); assay: stopped-flow light scattering at 340 nm, 15 °C; acto-HMM with MgADP mixed with MgATP

| Substance | fold faster rate of acto-HMM-ADP dissociation against rat α myosin [1] | K+5 (plateau of the rate of acto-HMM dissociation by MgATP in the presence of MgADP; limited by ADP release) [2] | K1·k+2 (apparent second-order rate constant of acto-HMM dissociation by MgATP alone) [3] | Kobs for acto-HMM-ADP dissociation against 2.5 and 5.0 mM MgATP [4] |
| --- | --- | --- | --- | --- |
| mouse α cardiac myosin HMM (chymotryptic heavy meromyosin of native mouse ventricular α-myosin) (from UniProt Q02566 1-1285) (enzyme) | 2 fold | 404 s⁻¹ | 1.3e+06 M⁻¹ s⁻¹ | – |
| rat α cardiac myosin HMM (chymotryptic heavy meromyosin of native hyperthyroid rat ventricular α-myosin) (from UniProt P02563 1-1285) (enzyme) | – | 245 s⁻¹ | 820000 M⁻¹ s⁻¹ | – |
| recombinant mutant G343S chicken smooth muscle myosin HMM | – | – | – | Kobs for acto-HMM-ADP dissociation against 2.5 and 5.0 mM MgATP was identical for both mutant and wild-type SmM HMM's, yielding rates of 46 s^-1 |
